# scFv variants of Ab-91 (heavy chain) against a SARS-CoV-2 spike peptide

Data: MIT Lincoln Laboratory AlphaSeq set, Engelhart et al. 2022, doi:10.1038/s41597-022-01779-4, as distributed in FLAb.

Binding partner: SARS-CoV-2 spike HR2 peptide, sequence PDVDLGDISGINAS.

Parent: Ab-91, a human scFv built as VL, three GGGGS repeats, VH. Only the CDRs of the heavy chain vary.
VL: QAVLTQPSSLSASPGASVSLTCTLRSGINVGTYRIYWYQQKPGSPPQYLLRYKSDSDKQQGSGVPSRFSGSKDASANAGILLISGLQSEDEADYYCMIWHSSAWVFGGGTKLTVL
VH: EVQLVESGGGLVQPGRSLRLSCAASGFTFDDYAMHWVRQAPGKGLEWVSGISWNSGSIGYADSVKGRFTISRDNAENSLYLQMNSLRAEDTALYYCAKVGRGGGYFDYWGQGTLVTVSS

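Phage display of a naive human antibody library on the peptide gave the parent. Library AAYL51 holds single substitutions and randomly drawn double and triple substitutions in the CDRs. The scFvs were displayed on barcoded MATa yeast, the peptide on MATalpha yeast. Binding brings cells together so that they mate, and sequencing counts the barcode pairs among the diploids. The ratio of observed to expected reads was calibrated, replicate by replicate, on BCL2-family standards whose Kd was known from biolayer interferometry. There are three technical replicates.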

Substitutions are numbered in sequence along the VH above, starting at 1 (not Kabat).
Kd is apparent (estimated from mating counts) and averaged on the log scale over replicates with a signal. Smaller is tighter.
An entry "not detected" has no value in the source: the pair was not observed among the diploids in any replicate. This suggests poor binding but is not conclusive.

changes,Kd (apparent),detected
G26R S63Y,9.1 µM,1/3
A33L V99P D107S,not detected,0/3
Y32C A33F V64M,680 µM,1/3
G50Y G100K G102P,400 µM,2/3
F27V K65I Y108K,1.7 µM,3/3
I51G W53M K65C,56 µM,1/3
K65A G100V Y108R,630 µM,2/3
F29S M34W Y60E,380 µM,1/3
T28R M34G H35S,not detected,0/3
G50K V64F G104R,460 µM,2/3
T28D A33I S63I,130 µM,1/3
S52W N54K,61 µM,2/3
N54A V64K G102Q,not detected,0/3
T28V F29I D62E,86 nM,3/3
F27I I51M G102R,not detected,0/3
A33E S57V Y105P,84 µM,3/3
G26H F29W I58P,not detected,0/3
A33N D62G G104D,61 µM,1/3
G26Q V99A G103Q,300 µM,3/3
Y32H S63D,1.2 µM,3/3
D30M V64L V99S,10 µM,2/3
D30A G50T K65Y,not detected,0/3
M34L N54I,60 µM,1/3
D31I S55R R101Y,not detected,0/3
Y32S N54W S57K,6.3 µM,1/3
H35Q G104N,24 µM,2/3
S55D V99S Y105D,not detected,0/3
D30A M34V R101T,170 nM,3/3
S55Q G103I G104V,not detected,0/3
F29C I51T G104T,not detected,0/3
S52K D62Y G102M,not detected,0/3
N54I I58L Y108Q,not detected,0/3
D30C G102T,52 µM,2/3
S55D G56E D107L,2.9 µM,2/3
H35E W53G G104A,not detected,0/3
W53D N54R,3.5 µM,3/3
F29S A33T K65A,not detected,0/3
D62P G104H,68 nM,3/3
T28V S52T V64Y,44 µM,1/3
G26R G100C Y108F,not detected,0/3
Y60S S63L D107E,not detected,0/3
A33Y G59S D62A,900 µM,3/3
G103L G104N F106L,not detected,0/3
T28K D31P M34Q,7.0 µM,1/3
F29M S55Q G56K,13 µM,1/3
A61W R101E G103K,not detected,0/3
D30P W53Q G102N,not detected,0/3
I51R G56E V64C,1.0 µM,1/3
G26E T28G I58A,not detected,0/3
D31I A33M G103M,not detected,0/3
T28G N54F,32 µM,1/3
Y32G A61P V64M,33 µM,3/3
T28N S55N V64L,not detected,0/3
T28M S52F S63K,not detected,0/3
T28N D62Q,not detected,0/3
I58Y V99K G102E,not detected,0/3
D31T K65W G104C,not detected,0/3
W53L G59M Y105L,81 nM,1/3
A33I Y60E D62K,not detected,0/3
F29S N54R R101L,2.1 µM,1/3
G26I D31I I51A,not detected,0/3
S52T A61M G103L,not detected,0/3
I51Y Y60D D107V,not detected,0/3
S55C G56F A61L,not detected,0/3
F27E T28E I51E,not detected,0/3
Y60G V64K K65D,42 µM,1/3
D30A D107I Y108G,690 µM,1/3

The 6 strongest on average among those seen in every replicate, once more:

changes,Kd (apparent),detected
D62P G104H,68 nM,3/3
T28V F29I D62E,86 nM,3/3
D30A M34V R101T,170 nM,3/3
Y32H S63D,1.2 µM,3/3
F27V K65I Y108K,1.7 µM,3/3
W53D N54R,3.5 µM,3/3

As a blank, each scFv also met three strains without target: over library AAYL51, 21% of these pairings were detected, typically at 34 µM and seldom below 1.8 µM.